Details: pig, PAMPA

Row | Substance | Pe, experimental value
1 | Norfloxazin | 0.9 ± 0.1 10^−6 cm s^−1
2 | Ofloxazin | 1.0 ± 0.1 10^−6 cm s^−1
